Source: PubChem
Hits are enriched below; roughly 4.2% of the tested compounds scored in any of these assays.
MC4R ag barr: agonists of human melanocortin 4 receptor (MC4R) beta-arrestin; P32245; U2OS MC4R beta-arrestin complementation, luminescence; percent of melanotan II response, DMSO zero; activation, % at 8.9 µM; 360,000 compounds, 0.98% hits; AID 540308;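 active means activation above a per-plate cutoff, the mean activation of sample wells on that plate plus 3 SD, cut at about 8% in these data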
ALR inh: inhibitors of human ALR sulfhydryl oxidase, primary screen, biochemical, H2O2 detection, HRP-luminol luminescence, single point; FAD-linked sulfhydryl oxidase ALR (Homo sapiens), P55789; purified ALR, DTT oxidation; inhibition, % (concentration not given with the values); 290,000 compounds, 3.8% hits; AID 485317, 2010;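 active = mean and each replicate at 75% or more; inconclusive = only one of the two met; inactive = neither met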;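 note: stock transfer was 7.5 nL into about 7.5 µL; 0% = neutral wells and 100% = wells with inactivated enzyme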
HDAC3 inhib: blocks human histone deacetylase 3 | inhibition, % at 8.3 µM | AID 2718 | O15379 | 320,000 compounds, 0.15% hits | recombinant HDAC3, fluorogenic peptide/trypsin coupled, fluorescence; in the data active means inhibition above about 26%, passing the limit was not always enough; inconclusive means no clear call, values can overlap the other calls
MC4R antag cAMP: human MC4R antagonism in cAMP assay | P32245 | MC4R-expressing cells, MTII-stimulated cAMP, LANCE TR-FRET | inhibition, % at 6.5 µM | AID 540295 | 360,000 compounds, 0.48% hits;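 active means inhibition above its plate's cutoff, the mean of tested wells on that plate plus 3 SD, cut at about 29% in these data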;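 further: 0% = Melanotan II alone and 100% = Melanotan II plus saturating MCL0020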
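Material: U2OS-MC4R stable cell line | Reagent: Melanotan II challenge after compound preincubation | Doses: One concentration, 6.5 µM nominal | Incubation: 30-min compound preincubation, 1-h Melanotan II challenge, 1-h detection, room temperature | Signal: TR-FRET cAMP assay | Replicates: One well per compound, no replicates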
NALP1 yeast inh: NALP1 inhibition; inhibition, % at 10 µM; AID 2071; 280,000 compounds, 0.61% hits; S. cerevisiae NALP1/ASC/caspase-1 growth, X-gal OD620, 72 h; in the data active means inhibition mostly above about 24%, no sharp cut-off; inactive means mostly below about 32%
UUG fidelity: modulators of start codon recognition fidelity in yeast. S. cerevisiae UUG-firefly luciferase reporter, luminescence/redox ratio. activity score, % at 18.7 µM. 350,000 tested, 0.13% active;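 active = replicate mean at a twofold rise or more, about +100% in these data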;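 note: firefly luciferase made from a UUG start codon reports start codon fidelity; reporter light over untreated wells divided by growth signal over untreated wells; some hits fall short of that in this replicate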
* = called active by the depositor.

What do the screens show for `O=C(CSC1=NCCN1)C1COc2ccccc2O1` (stereo not given)?
MC4R ag barr: -1.0; ALR inh: 92.9*; HDAC3 inhib: inconclusive; MC4R antag cAMP: 4.0; NALP1 yeast inh: -5.1; UUG fidelity: -4.7

What do the screens show for `COCC(=O)N(C)C[C@@H]1Oc2ncc(-c3ccccc3C)cc2C(=O)N([C@H](C)CO)C[C@@H]1C`?
UUG fidelity: 9.1

What do the screens show for `Cc1nc2ccc(S(=O)(=O)N(C)CC(=O)NCc3ccc4c(c3)OCO4)cc2s1`?
MC4R ag barr: 1.6; HDAC3 inhib: 3.9; MC4R antag cAMP: 6.4; NALP1 yeast inh: 8.6; UUG fidelity: -3.9

How did Cc1nc2ccc(S(=O)(=O)N(C)CC(=O)NCc3ccc(N(C)C)cc3)cc2s1 do in these assays?
MC4R ag barr: 1.1; ALR inh: 84.7*; HDAC3 inhib: 3.2; MC4R antag cAMP: 9.4; NALP1 yeast inh: -4.5; UUG fidelity: -4.3

What do the screens show for `CN1CCc2cc(O)c(O)cc2C(c2ccccc2)C1` (stereo not given)?
MC4R ag barr: 0.1; HDAC3 inhib: -0.5; MC4R antag cAMP: -1.0; UUG fidelity: -15.9

Results for C=CCN1CCc2c(cc(O)c(O)c2Br)[C@@H](c2ccccc2)C1 ?
MC4R ag barr: 0.7; ALR inh: 98.8*; HDAC3 inhib: 0.4; MC4R antag cAMP: -7.2; UUG fidelity: -9.5

What do the screens show for `CCCC(=O)Nc1ccc2c(c1)C(=O)N(C)C[C@H](OC)[C@@H](C)CN(Cc1cncnc1)[C@@H](C)CO2`?
UUG fidelity: 12.2

How did CC(C)(C)c1cc(NC(=O)Nc2ccccc2OC(F)(F)F)no1 do in these assays?
MC4R ag barr: 8.7*; HDAC3 inhib: 0.9; MC4R antag cAMP: 14.6; NALP1 yeast inh: 17.6; UUG fidelity: -11.6

What do the screens show for `O=C(CCCOc1ccccc1)N1CCCCC1`?
MC4R ag barr: -1.2; HDAC3 inhib: -3.5; MC4R antag cAMP: 4.5; NALP1 yeast inh: 32.6*; UUG fidelity: -10.0

How did O=C(CCCOc1ccc(Cl)cc1)N1CCCCC1 do in these assays?
MC4R ag barr: 3.8; ALR inh: 4.8; HDAC3 inhib: -3.8; MC4R antag cAMP: 16.1; NALP1 yeast inh: 32.7; UUG fidelity: -19.8

Four records drawn at random from the list so far:
What do the screens show for `O=C(CCCOc1ccccc1)N1CCCCC1`?
MC4R ag barr: -1.2; HDAC3 inhib: -3.5; MC4R antag cAMP: 4.5; NALP1 yeast inh: 32.6*; UUG fidelity: -10.0

How did Cc1nc2ccc(S(=O)(=O)N(C)CC(=O)NCc3ccc(N(C)C)cc3)cc2s1 do in these assays?
MC4R ag barr: 1.1; ALR inh: 84.7*; HDAC3 inhib: 3.2; MC4R antag cAMP: 9.4; NALP1 yeast inh: -4.5; UUG fidelity: -4.3

What do the screens show for `O=C(CSC1=NCCN1)C1COc2ccccc2O1` (stereo not given)?
MC4R ag barr: -1.0; ALR inh: 92.9*; HDAC3 inhib: inconclusive; MC4R antag cAMP: 4.0; NALP1 yeast inh: -5.1; UUG fidelity: -4.7

What do the screens show for `Cc1nc2ccc(S(=O)(=O)N(C)CC(=O)NCc3ccc4c(c3)OCO4)cc2s1`?
MC4R ag barr: 1.6; HDAC3 inhib: 3.9; MC4R antag cAMP: 6.4; NALP1 yeast inh: 8.6; UUG fidelity: -3.9

Further entries follow:
What do the screens show for `CCOc1cc(C2C(C#N)=C(N)SC(N)=C2C#N)ccc1OCCN1CCOCC1`?
MC4R ag barr: 0.4; ALR inh: 98.7*; HDAC3 inhib: 5.2; MC4R antag cAMP: 0.6; NALP1 yeast inh: -40.4; UUG fidelity: 0.3

How did Cc1noc(C)c1C(=O)Nc1ccc(F)cc1 do in these assays?
MC4R ag barr: 0.3; ALR inh: -4.0; HDAC3 inhib: 4.8; MC4R antag cAMP: 2.4; NALP1 yeast inh: -0.4; UUG fidelity: -7.9

What do the screens show for `Cc1noc(C)c1C(=O)Nc1ccc(N(C)C)cc1`?
MC4R ag barr: -0.7; ALR inh: 99.1*; HDAC3 inhib: 10.6; MC4R antag cAMP: 5.0; NALP1 yeast inh: 0.5; UUG fidelity: -7.1

How did CN(C)c1ccc(NC(=O)c2cnsn2)cc1 do in these assays?
MC4R ag barr: -1.1; ALR inh: 99.2*; HDAC3 inhib: 6.2; MC4R antag cAMP: -8.0; NALP1 yeast inh: 12.5; UUG fidelity: -60.8

Results for C[C@@H]1CN([C@H](C)CO)C(=O)c2c(c3ccccc3n2C)-c2ccccc2CO[C@@H]1CN(C)CC1CC1 ?
UUG fidelity: 1.0

What do the screens show for `CO[C@@H]1CN(C)C(=O)c2ccc(NS(=O)(=O)c3cccc(C)c3)cc2OC[C@@H](C)N(Cc2cc(F)ccc2F)C[C@H]1C`?
UUG fidelity: 2.4

How did O=C(NCC[C@@H]1CC[C@@H](NC(=O)c2cccnc2)[C@@H](CO)O1)Nc1ccc(Cl)cc1 do in these assays?
UUG fidelity: -8.8

Results for FC(F)(F)c1cccc(NC(=S)NCCc2ccccn2)c1 ?
MC4R ag barr: 0.0; ALR inh: 77.4*; HDAC3 inhib: 6.8; MC4R antag cAMP: 8.8; NALP1 yeast inh: 8.7; UUG fidelity: -7.1

How did Fc1ccc(NC(=S)NCCc2ccccn2)cc1 do in these assays?
MC4R ag barr: -2.0; ALR inh: 51.7; HDAC3 inhib: -13.6; MC4R antag cAMP: 4.7; NALP1 yeast inh: -2.1

Results for S=C(NCCc1ccccn1)Nc1ccc(Cl)cc1 ?
MC4R ag barr: -1.6; ALR inh: 2.2; HDAC3 inhib: -1.7; MC4R antag cAMP: -0.6; NALP1 yeast inh: 33.8

How did CC(C)(C)c1ccc(NC(=S)NCCc2ccccn2)cc1 do in these assays?
MC4R ag barr: 0.4; ALR inh: 97.9*; HDAC3 inhib: -2.4; MC4R antag cAMP: 5.7; NALP1 yeast inh: 12.8

How did C[C@@H]1CN([C@@H](C)CO)C(=O)c2cc(C#CC(C)(C)O)cnc2O[C@@H]1CN(C)C(=O)C1CCCCC1 do in these assays?
UUG fidelity: -3.4

How did Cc1cc(N(CCO)CCO)ccc1N=Nc1cc(F)ccc1F do in these assays?
MC4R ag barr: -4.0; ALR inh: 99.2*; HDAC3 inhib: 6.6; MC4R antag cAMP: 3.0; NALP1 yeast inh: 7.8; UUG fidelity: 26.0

Results for OCCN(CCO)c1ccc(C(c2ccc(Cl)cc2)c2ccc(N(CCO)CCO)cc2Cl)c(Cl)c1 ?
MC4R ag barr: 6.4; ALR inh: -3.7; HDAC3 inhib: 3.4; MC4R antag cAMP: 15.0; NALP1 yeast inh: 20.6; UUG fidelity: -7.4

What do the screens show for `CN(C)CC#Cc1ccc([C@H]2[C@H]3CN(C(=O)C4CC4)CCCCN3[C@H]2CO)cc1`?
UUG fidelity: -2.7

What do the screens show for `CCOC(=O)C1CCN(C(=O)c2cccc(NC3=NC4CS(=O)(=O)CC4S3)c2)CC1` (stereo not given)?
MC4R ag barr: -1.2; ALR inh: -13.8; HDAC3 inhib: 9.5; MC4R antag cAMP: -0.6; NALP1 yeast inh: -15.9; UUG fidelity: 7.4

What do the screens show for `COc1cccc(N2CCN(C(=O)c3cccc(NC4=NC5CS(=O)(=O)CC5S4)c3)CC2)c1` (stereo not given)?
MC4R ag barr: 0.2; ALR inh: 99.8*; HDAC3 inhib: -0.9; MC4R antag cAMP: 4.9; NALP1 yeast inh: -4.5; UUG fidelity: -1.7

Results for CC(C)NC(=O)NCC[C@@H]1CC[C@H](NS(=O)(=O)c2ccc(-c3ccccc3)cc2)[C@@H](CO)O1 ?
UUG fidelity: 3.5

Results for COc1ccccc1CNC(=O)C[C@H]1C=C[C@H](NC(C)=O)[C@@H](CO)O1 ?
UUG fidelity: -12.7

How did CSc1ccc(/C=C(\C(=O)O)c2ccc(S(=O)(=O)N3CCCCC3)s2)cc1 do in these assays?
MC4R ag barr: 3.1; ALR inh: 90.1*; HDAC3 inhib: -13.5; MC4R antag cAMP: 6.6; NALP1 yeast inh: 15.0

Results for O=C(O)/C(=C\c1cccc([N+](=O)[O-])c1)c1ccc(S(=O)(=O)N2CCCCC2)s1 ?
MC4R ag barr: -1.0; ALR inh: 3.7; HDAC3 inhib: -2.1; MC4R antag cAMP: 2.4; NALP1 yeast inh: 23.4*
